tested on: CEES-induced mouse ear edema; assay: Mouse ear inflammation (edema) assay, CEES-induced; settings: test compound 1-2 micromoles applied to ear 10 minutes prior to CEES (2.5 mg/ml); ear punch weight after 6 hours

The chains behind the UniProt entries cited, without tags or fusion partners.
UniProt O00519, whole entry, looked up: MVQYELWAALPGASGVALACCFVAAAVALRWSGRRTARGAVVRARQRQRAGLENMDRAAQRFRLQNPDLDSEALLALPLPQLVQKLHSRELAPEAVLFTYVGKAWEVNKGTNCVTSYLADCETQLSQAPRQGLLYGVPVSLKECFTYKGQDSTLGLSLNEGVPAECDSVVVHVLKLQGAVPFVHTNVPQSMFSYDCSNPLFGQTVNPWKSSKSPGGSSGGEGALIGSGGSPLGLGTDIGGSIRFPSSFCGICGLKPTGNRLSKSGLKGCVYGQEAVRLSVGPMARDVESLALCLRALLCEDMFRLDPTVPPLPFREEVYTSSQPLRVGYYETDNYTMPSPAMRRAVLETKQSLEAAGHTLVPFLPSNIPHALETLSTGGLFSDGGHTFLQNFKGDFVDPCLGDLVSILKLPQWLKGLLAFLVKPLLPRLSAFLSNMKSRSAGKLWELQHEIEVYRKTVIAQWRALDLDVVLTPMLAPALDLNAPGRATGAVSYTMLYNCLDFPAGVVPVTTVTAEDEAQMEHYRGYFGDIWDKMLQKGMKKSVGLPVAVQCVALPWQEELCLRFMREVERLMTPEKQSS

| Molecule | suppression of CEES-induced ear edema |
| --- | --- |
| COc1cc(COC(=O)NCCOc2ccccc2)ccc1OC(C)=O | 51% |
| COc1cc(COC(=O)NCCc2ccccc2)ccc1OC(C)=O | 56% |

target: human recombinant FAAH (Homo sapiens, UniProt O00519); assay: FAAH Inhibitor Screening Assay Kit (Cayman), fluorescence-based, AMC-arachidonoyl amide hydrolysis; settings: read-out: FAAH (μM, IC50), 20 micromolar AMC-arachidonoyl amide, 30 min at 37° C., pH 9.0

| Molecule | IC50 |
| --- | --- |
| COc1cc(COC(=O)NCC2CCCCC2)ccc1OC(C)=O | 85 µM |
| COc1cc(COC(=O)NCCC(C)(C)C)ccc1OC(C)=O | 25 µM |
| CCCCN(CCCC)C(=O)OCc1ccc(OC(C)=O)c(OC)c1 | 135 µM |
| COc1cc(COC(=O)NCc2ccccc2)ccc1OC(C)=O | 28 µM |
| COc1cc(COC(=O)NCCOc2ccccc2)ccc1OC(C)=O | 21 µM |
| COc1cc(COC(=O)NCCc2ccccc2)ccc1OC(C)=O | 8 µM |
| COc1cc(COC(=O)NC2Cc3ccccc3C2)ccc1OC(C)=O | 100 µM |
| CCCCCCNC(=O)OCc1ccc(OC(C)=O)c(OC)c1 | 333 µM |
| CCCCC(CC)CNC(=O)OCc1ccc(OC(C)=O)c(OC)c1 (centres unmarked) | 31 µM |
| CCCCCCCCNC(=O)OCc1ccc(OC(C)=O)c(OC)c1 | 88 µM |
| COc1cc(COC(=O)NC2CCCCC2)ccc1OC(C)=O | 104 µM |
| CCNC(=O)OCc1ccc(OC(C)=O)c(OC)c1 | > 900 µM |
| COc1cc(COC(=O)NCCN2CCOCC2)ccc1OC(C)=O | 410 µM |
| CCCCCCCNC(=O)OCc1ccc(OC(C)=O)c(OC)c1 | 67 µM |
| CCCCCCCCCCCCNC(=O)OCc1ccc(OC(C)=O)c(OC)c1 | 8 µM |
| CCOC(=O)CNC(=O)OCc1ccc(OC(C)=O)c(OC)c1 | > 900 µM |
| CCCCCCCCCCNC(=O)OCc1ccc(OC(C)=O)c(OC)c1 | 62 µM |
| CCCCNC(=O)OCc1ccc(OC(C)=O)c(OC)c1 | 338 µM |

same assay, conditions: read-out: FAAH IC50

| Molecule | IC50 |
| --- | --- |
| CCCCCCCCCCCCNC(=O)OCc1ccc(OC(C)=O)c(OC)c1 | 8 µM |

tested on: TPA-induced mouse ear edema; assay: Mouse ear inflammation (edema) assay, TPA-induced; settings: reference drugs applied to ear 10 minutes prior to TPA; ear punch weight after 6 hours

| Molecule | Rel. TPA Inflammatory Suppression (percent) |
| --- | --- |
| O=C(O)Cc1ccccc1Nc1c(Cl)cccc1Cl | 35% |
| (S)-Naproxen | 42% |

same assay, conditions: test compound 1-2 micromoles applied to ear 10 minutes prior to TPA; ear punch weight after 6 hours; relative percent inhibition of edema

| Molecule | Rel. TPA Inflammatory Suppression |
| --- | --- |
| COc1cc(COC(=O)NCC2CCCCC2)ccc1OC(C)=O | ** (those >50% are (* *)) |
| COc1cc(COC(=O)NCCC(C)(C)C)ccc1OC(C)=O | *** (those >60% are marked (* * *)) |
| CCCCN(CCCC)C(=O)OCc1ccc(OC(C)=O)c(OC)c1 | ** (those >50% are (* *)) |
| COc1cc(COC(=O)NCc2ccccc2)ccc1OC(C)=O | ** (those >50% are (* *)) |
| COc1cc(COC(=O)NCCOc2ccccc2)ccc1OC(C)=O | ***** (compounds which actively suppressed the edema by >80% were scored (* * * * *)) |
| COc1cc(COC(=O)NCCc2ccccc2)ccc1OC(C)=O | ***** (compounds which actively suppressed the edema by >80% were scored (* * * * *)) |
| COc1cc(COC(=O)NC2Cc3ccccc3C2)ccc1OC(C)=O | **** (>70% were scored (* * * *)) |
| COCCNC(=O)OCc1ccc(OC(C)=O)c(OC)c1 | * (those from 5% to 50% suppression are coded (*)) |
| CCCCCCNC(=O)OCc1ccc(OC(C)=O)c(OC)c1 | ** (those >50% are (* *)) |
| CCCCC(CC)CNC(=O)OCc1ccc(OC(C)=O)c(OC)c1 (centres unmarked) | **** (>70% were scored (* * * *)) |
| CCCCCCCCNC(=O)OCc1ccc(OC(C)=O)c(OC)c1 | * (those from 5% to 50% suppression are coded (*)) |
| CCNC(=O)OCc1ccc(OC(C)=O)c(OC)c1 | * (those from 5% to 50% suppression are coded (*)) |
| COc1cc(COC(=O)NCCN2CCOCC2)ccc1OC(C)=O | * (those from 5% to 50% suppression are coded (*)) |
| CCCCCCCNC(=O)OCc1ccc(OC(C)=O)c(OC)c1 | ** (those >50% are (* *)) |
| CCCCCCCCCCCCNC(=O)OCc1ccc(OC(C)=O)c(OC)c1 | **** (>70% were scored (* * * *)) |
| CCOC(=O)CNC(=O)OCc1ccc(OC(C)=O)c(OC)c1 | *** (those >60% are marked (* * *)) |
| CCCCCCCCCCNC(=O)OCc1ccc(OC(C)=O)c(OC)c1 | * (those from 5% to 50% suppression are coded (*)) |
| CCCCNC(=O)OCc1ccc(OC(C)=O)c(OC)c1 | *** (those >60% are marked (* * *)) |
